From patent publication EP2363413A1 (YISSUM RESEARCH DEVELOPMENT COMPANY OF THE HEBREW …, dated 2011) come the findings set out here.

The chains behind the UniProt entries cited, without tags or fusion partners. Residues count along the entry.
UniProt P42081, 20-239 limits assumed: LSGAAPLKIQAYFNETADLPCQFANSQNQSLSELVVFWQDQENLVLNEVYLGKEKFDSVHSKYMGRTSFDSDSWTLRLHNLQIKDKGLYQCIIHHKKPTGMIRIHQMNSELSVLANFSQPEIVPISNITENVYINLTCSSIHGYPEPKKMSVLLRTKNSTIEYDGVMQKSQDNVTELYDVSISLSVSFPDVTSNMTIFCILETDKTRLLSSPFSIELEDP

The assay concerns the target soluble B7-2 (sB7-2), human B7-2 extracellular domain fused to His6-tagged human IgG1 Fc (human) (UniProt P42081). Nature of the assay: SPR (BIAcore 3000, 25°C), sCD28 immobilized on CM5 chip, sB7-2 injected. On the technique in general: In SPR one partner is held on a chip, and binding of the other changes the refractive index at the surface.

The term Kd denotes the constant that tells how readily two partners part at equilibrium. Low readings indicate a tighter complex, high ones a looser complex. As to “soluble CD28 (sCD28), human CD28 extracellular domain fused to His6-tagged human IgG1 Fc (from UniProt P10747 19-152) (Fc fusion)”, the dissociation constant (Kd) worked out at 19 nM.
